Chains of the proteins cited; added tags and fusions are not shown. A line that says so, or that is headed by a name, gives the form on record, which may keep a tag or linker. Residues count along the entry.
UniProt Q96CA5, as listed by the source S150G: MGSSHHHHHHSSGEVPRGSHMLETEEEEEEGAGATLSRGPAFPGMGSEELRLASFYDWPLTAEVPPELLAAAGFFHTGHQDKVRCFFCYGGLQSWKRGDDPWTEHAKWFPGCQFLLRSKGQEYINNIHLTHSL
UniProt P98170, 241-356: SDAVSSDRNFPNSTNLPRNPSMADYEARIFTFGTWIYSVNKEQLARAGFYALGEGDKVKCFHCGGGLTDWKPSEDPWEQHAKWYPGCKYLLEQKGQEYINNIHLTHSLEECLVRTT

According to BindingDB's records for doi:10.1021/jm801450c (Genentech, 2009):

Legend:
[1] = molecular target: T1, Complex of Baculoviral IAP repeat-containing protein 7 [63-159,S150G] and E3 ubiquitin-protein ligase XIAP [336-348] (Homo sapiens, UniProt Q96CA5, S150G); test: Fluorescence Polarization Affinity Measurements; details: pH 7.2; 22 °C
T1 construct: 63-159; 336-348
Method: (§1) Samples for fluorescence polarization affinity measurements were prepared by addition of serial dilutions of target protein to each well containing antagonist and polarization probe in the buffer. Samples were read after 30-min incubation. Fluorescence polarization values were plotted as a function of the antagonist concentration, and the IC50 values were obtained by fitting the data to a four-parameter equation using KaleidaGraph software. Ki values for the antagonists were determined from the IC50 values.

[2] = molecular target: T2, E3 ubiquitin-protein ligase XIAP [241-356] (Homo sapiens, UniProt P98170); test: Fluorescence Polarization Affinity Measurements
T2 construct: 241-356
Method: as §1

## CC(C)[C@H](NC(=O)[C@H](C)N)C(=O)N1CCC[C@H]1C(=O)NCC(c1ccccc1)c1ccccc1 [(2S)-1-[(2S)-2-[(2S)-2-aminopropanamido]-3-methylbutanoyl]-N-(2,2-diphenylethyl)pyrrolidine-2-carboxamide]
[1]
  Ki: 43 nM
[2]
  Ki: 345 nM
